Data reported in PMC8463443 (Acta Pharmaceutica Sinica. B, 2021).

Tested on: monkey kidney cell line Vero E6
Assay: Cell viability, Vero E6
Assay type: cell-based
Details: monkey kidney cell line Vero E6 (Fig. S6)

CC(C)C[C@H](NC(=O)[C@H](CC(N)=O)NC(=O)[C@H](Cc1c[nH]c2ccccc12)NC(=O)[C@H](Cc1ccc(O)cc1)NC(=O)[C@H](CCC(=O)O)NC(=O)[C@H](C)NC(=O)[C@H](Cc1ccccc1)NC(=O)[C@H](CO)NC(=O)[C@@H](NC(=O)[C@@H](N)CCCCN)[C@@H](C)O)C(=O)N[C@@H](CC(C)C)C(=O)N[C@@H](CO)C(=O)N1CCC[C@H]1C(=O)N[C@@H](CCCCN)C(=O)O [PMI-2K]
effect on viability of Vero E6: neither PMI-2K nor M3-2K had any effect on the viability
